Tested on: Human mesenchymal stem cells
Experiment: ALP activity determination in human mesenchymal stem cells
Format: cell-based
Conditions: 10 nM; differentiation medium; Day 5
Protocol: Human mesenchymal stem cells were seeded on a 96-well plate (1×10^3 cells/well) (Nunc) and a 48-well plate (2.4×10^3 cells/well) (IWAKI). After 24 hours, the culture supernatant was removed from each plate and an osteoblast differentiation induction medium (Lonza) was introduced thereonto. The medium was replaced with new medium every 3 or 4 days.
At such time, peptide D was added at a concentration of 100 μM (group treated with peptide D). As a negative control, the control peptide was added at the same concentration.
Seven days after differentiation, the culture supernatant was removed from each plate and the cells were fixed with an acetone/ethanol solution. The ALP activity was determined using p-nitrophenyl phosphate as a substrate. Specifically, a carbonate buffer (5 mM MgCl2, 50 mM NaHCO3) containing p-nitrophenyl phosphate (Nacalai) (1 mg/mL) was added to each well (100 μL/well), followed by incubation at 37° C. Then, the OD value at 405 nm was determined with the use of a microplate reader (BMG Labtech) for each well.
Human mesenchymal stem cells (hMSC; Lonza) were seeded on a 96-well plate (Nunc) (2×10^3 cells/well). After cell adhesion had taken place, the medium was replaced with a differentiation medium prepared by adding 100 nM dexamethasone (SIGMA), 10 mM BGP(SIGMA), and 50 μg/mL ascorbic acid to a dedicated maintenance medium (Lonza). […]

B1: GST fusion peptide D: fusion protein of peptide D and GST (SEQ ID NO: 55), approximately 27 kDa (protein)
chain: MSPILGYWKIKGLVQPTRLLLEYLEEKYEEHLYERDEGDKWRNKKFELGLEFPNLPYYIDGDVKLTQSMAIIRYIADKHNMLGGCPKERAEISMLEGAVLDIRYGVSRIAYSKDFETLKVDFLSKLPEMLKMFEDRLCHKTYLNGDHVTHPDFMLYDALDVVLYMDPMCLDAFPKLVCFKKRIEAIPQIDKYLKSSKYIAWPLQGWQATFGGGDHPPKSDLVPRGSGGGGSYCWSQYLCY
B1 was tested, and the ALP activity was “significant increase in ALP activity”.

— patent US20100260680A1, “NOVEL BONE MASS INCREASING AGENT” (ORIENTAL YEAST CO., LTD., priority 2007, published 2010)
